Test results: article PMC11488158, “Propofol binds and inhibits skeletal muscle ryanodine receptor 1” (BJA: British Journal of Anaesthesia, 2024)

Amino acid sequences for entries named in this document (tags omitted). A change or cut given only in a name is not applied to a line headed by its entry.
UniProt P21817: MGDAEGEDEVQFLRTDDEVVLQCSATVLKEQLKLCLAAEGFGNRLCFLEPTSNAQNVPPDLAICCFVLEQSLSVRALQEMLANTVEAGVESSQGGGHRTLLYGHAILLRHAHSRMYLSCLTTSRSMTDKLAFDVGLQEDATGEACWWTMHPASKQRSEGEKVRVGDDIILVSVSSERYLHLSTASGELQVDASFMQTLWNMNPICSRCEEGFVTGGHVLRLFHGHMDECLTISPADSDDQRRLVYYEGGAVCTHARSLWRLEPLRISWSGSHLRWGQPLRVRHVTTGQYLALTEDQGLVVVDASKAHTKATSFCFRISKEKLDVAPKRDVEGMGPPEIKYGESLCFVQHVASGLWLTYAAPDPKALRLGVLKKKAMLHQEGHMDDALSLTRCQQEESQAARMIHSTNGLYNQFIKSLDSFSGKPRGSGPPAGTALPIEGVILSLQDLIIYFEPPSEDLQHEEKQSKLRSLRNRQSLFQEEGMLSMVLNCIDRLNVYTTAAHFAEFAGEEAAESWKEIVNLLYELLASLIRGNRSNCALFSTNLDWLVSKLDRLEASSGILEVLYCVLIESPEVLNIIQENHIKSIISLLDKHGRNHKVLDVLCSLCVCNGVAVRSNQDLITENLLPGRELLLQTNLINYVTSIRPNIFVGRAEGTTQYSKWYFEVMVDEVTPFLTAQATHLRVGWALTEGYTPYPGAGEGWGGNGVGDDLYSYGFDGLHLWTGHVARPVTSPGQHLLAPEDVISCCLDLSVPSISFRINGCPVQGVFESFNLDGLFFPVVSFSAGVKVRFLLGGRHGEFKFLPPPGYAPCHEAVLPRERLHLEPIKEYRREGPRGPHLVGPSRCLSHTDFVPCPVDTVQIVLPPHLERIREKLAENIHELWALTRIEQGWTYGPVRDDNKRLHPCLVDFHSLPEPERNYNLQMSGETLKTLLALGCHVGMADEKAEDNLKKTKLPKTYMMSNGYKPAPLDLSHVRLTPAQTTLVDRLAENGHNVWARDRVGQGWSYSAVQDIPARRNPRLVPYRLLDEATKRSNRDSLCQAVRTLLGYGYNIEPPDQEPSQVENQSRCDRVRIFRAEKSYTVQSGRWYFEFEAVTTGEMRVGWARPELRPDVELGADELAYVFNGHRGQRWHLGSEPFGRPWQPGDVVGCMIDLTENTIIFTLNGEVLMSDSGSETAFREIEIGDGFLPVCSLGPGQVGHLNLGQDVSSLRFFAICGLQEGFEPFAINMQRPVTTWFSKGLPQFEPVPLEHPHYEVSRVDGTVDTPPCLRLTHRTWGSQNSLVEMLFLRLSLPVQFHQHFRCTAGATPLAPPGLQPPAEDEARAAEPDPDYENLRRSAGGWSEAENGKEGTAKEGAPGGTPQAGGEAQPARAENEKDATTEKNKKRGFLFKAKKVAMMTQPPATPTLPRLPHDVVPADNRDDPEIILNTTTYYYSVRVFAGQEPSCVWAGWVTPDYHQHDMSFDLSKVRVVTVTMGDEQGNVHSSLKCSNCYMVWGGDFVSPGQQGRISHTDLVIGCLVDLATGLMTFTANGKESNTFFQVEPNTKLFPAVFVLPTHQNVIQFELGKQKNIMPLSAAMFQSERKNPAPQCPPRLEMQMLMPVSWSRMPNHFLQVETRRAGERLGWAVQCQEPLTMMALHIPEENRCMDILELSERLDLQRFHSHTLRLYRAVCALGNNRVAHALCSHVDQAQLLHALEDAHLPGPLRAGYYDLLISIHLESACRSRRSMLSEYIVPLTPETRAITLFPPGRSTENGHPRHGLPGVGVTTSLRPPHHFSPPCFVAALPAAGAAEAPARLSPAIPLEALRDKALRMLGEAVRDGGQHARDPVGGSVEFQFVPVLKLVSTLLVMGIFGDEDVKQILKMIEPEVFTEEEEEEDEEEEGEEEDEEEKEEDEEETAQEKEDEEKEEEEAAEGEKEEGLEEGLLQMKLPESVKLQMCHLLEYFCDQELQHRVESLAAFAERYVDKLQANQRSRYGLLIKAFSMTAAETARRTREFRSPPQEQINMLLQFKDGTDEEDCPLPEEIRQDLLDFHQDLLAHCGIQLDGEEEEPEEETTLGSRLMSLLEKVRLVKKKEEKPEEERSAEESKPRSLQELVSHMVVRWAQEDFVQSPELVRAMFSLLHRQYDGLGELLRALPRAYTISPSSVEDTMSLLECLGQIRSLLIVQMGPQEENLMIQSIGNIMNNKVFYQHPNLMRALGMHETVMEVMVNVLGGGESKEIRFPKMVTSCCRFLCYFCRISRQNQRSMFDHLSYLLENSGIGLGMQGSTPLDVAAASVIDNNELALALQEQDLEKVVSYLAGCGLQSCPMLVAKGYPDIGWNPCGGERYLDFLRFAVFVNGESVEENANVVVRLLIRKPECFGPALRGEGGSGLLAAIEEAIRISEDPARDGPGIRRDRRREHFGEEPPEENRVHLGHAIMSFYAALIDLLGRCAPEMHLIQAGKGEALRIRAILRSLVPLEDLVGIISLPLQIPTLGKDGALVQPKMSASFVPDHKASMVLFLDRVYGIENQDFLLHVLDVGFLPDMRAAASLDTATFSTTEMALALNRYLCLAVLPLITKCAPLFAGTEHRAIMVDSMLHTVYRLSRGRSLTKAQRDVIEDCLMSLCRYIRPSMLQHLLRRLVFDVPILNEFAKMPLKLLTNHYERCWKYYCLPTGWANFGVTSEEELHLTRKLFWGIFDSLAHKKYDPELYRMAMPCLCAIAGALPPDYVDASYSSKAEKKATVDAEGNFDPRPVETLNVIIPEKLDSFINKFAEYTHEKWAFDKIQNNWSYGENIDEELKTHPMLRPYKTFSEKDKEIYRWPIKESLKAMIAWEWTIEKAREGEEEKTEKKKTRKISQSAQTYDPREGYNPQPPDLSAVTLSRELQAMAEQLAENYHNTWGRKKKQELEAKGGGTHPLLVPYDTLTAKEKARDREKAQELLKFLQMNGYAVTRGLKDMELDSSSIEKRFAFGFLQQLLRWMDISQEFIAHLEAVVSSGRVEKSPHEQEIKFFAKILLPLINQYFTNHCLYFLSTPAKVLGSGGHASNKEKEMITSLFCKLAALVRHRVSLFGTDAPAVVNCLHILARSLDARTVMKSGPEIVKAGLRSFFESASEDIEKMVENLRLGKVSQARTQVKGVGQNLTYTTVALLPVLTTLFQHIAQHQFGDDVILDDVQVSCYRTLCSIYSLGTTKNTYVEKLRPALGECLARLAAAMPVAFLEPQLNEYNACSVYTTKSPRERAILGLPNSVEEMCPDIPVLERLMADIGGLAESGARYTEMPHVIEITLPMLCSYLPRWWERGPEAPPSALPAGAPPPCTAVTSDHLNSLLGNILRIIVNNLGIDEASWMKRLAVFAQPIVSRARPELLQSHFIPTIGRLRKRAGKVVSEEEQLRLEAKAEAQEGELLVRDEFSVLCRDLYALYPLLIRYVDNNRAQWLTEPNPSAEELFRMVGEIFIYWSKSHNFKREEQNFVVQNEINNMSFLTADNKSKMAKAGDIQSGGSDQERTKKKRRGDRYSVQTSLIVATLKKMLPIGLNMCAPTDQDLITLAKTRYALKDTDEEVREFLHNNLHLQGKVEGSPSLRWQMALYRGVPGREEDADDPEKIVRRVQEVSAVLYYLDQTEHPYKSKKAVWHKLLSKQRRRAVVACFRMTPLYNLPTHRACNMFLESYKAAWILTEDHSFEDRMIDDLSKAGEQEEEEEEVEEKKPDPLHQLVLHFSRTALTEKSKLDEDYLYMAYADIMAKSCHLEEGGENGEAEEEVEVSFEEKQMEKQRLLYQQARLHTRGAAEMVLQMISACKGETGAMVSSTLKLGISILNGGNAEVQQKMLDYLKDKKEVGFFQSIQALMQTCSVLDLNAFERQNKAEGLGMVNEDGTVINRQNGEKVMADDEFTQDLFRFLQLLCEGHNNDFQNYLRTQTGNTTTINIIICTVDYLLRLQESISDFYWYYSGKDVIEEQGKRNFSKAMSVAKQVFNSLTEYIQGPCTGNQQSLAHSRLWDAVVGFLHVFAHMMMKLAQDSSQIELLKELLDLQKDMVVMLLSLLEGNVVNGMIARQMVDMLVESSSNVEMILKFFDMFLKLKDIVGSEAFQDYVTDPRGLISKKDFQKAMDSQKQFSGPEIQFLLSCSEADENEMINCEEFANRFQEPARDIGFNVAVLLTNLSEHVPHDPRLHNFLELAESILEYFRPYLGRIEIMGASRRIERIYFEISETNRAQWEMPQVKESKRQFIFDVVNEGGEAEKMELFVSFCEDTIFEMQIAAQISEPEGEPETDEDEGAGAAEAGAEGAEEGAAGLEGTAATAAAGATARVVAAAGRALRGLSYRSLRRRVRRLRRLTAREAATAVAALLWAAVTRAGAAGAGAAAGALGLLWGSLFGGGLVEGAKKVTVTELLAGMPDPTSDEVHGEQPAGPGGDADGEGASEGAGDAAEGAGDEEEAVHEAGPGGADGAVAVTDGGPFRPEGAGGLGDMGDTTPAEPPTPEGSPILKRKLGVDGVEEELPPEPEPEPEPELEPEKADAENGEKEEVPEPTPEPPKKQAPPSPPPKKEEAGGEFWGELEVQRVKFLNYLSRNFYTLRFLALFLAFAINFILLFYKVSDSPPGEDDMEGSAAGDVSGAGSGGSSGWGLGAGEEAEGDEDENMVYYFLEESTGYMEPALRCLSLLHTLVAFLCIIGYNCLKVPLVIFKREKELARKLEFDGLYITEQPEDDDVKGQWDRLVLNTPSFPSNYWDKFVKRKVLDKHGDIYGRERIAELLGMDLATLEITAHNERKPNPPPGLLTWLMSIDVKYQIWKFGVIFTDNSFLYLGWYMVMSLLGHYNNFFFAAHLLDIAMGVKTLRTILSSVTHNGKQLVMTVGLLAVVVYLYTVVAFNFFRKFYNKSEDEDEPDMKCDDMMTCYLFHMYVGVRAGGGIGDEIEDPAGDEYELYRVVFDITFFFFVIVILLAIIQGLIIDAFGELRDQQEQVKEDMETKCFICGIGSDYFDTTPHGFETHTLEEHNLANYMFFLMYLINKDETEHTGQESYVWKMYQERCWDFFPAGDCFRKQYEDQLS

Target: T1, ryanodine receptor 1 (RyR1) (Homo sapiens, UniProt P21817)
T1 construct: wild-type human skeletal myotubes
Test: Fura-2 Ca2+ imaging, ryanodine concentration response ([…])
Type: cell-based

Q: How did the “Fura-2 Ca2+ imaging, ryanodine concentration response (2-1000 nM)” value turn out when ryanodine was run?
A: ~ 1 μM
